pKi: −log10 of the molar value.
Columns and labels:
[1] = target: 5-hydroxytryptamine receptor 2A (Homo sapiens, UniProt P28223)
[2] = target: 5-hydroxytryptamine receptor 2C (Homo sapiens, UniProt P28335)
[3] = target: 5-hydroxytryptamine receptor 2B (Homo sapiens, UniProt P41595)

The chains behind the UniProt entries cited, without tags or fusion partners. Where a name states a change or a piece, a line headed by the entry shows the natural chain unless it says otherwise.
UniProt P28223, whole entry: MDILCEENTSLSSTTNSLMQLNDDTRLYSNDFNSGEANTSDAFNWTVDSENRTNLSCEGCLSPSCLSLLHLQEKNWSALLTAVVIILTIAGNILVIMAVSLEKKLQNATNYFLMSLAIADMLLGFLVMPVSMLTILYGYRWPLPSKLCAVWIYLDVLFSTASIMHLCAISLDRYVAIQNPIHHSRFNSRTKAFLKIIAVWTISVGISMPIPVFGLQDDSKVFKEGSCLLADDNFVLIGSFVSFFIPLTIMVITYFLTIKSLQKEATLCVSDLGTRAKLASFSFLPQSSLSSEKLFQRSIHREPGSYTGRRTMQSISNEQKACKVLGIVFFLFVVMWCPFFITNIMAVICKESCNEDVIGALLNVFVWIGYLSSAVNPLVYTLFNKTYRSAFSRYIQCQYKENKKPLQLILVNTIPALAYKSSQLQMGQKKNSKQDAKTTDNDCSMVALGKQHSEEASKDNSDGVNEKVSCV
UniProt P28335: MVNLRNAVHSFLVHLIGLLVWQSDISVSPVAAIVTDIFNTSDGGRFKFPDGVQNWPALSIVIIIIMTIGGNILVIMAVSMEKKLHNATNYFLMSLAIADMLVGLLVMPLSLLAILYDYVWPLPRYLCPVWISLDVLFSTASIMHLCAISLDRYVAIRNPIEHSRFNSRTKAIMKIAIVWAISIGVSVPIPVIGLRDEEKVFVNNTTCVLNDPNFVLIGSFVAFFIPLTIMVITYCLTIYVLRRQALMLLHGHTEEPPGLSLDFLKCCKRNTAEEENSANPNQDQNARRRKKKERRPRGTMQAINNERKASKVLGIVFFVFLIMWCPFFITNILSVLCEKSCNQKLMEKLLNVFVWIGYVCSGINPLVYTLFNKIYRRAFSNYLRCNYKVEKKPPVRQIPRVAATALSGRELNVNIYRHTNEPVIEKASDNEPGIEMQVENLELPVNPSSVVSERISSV
UniProt P41595, whole entry: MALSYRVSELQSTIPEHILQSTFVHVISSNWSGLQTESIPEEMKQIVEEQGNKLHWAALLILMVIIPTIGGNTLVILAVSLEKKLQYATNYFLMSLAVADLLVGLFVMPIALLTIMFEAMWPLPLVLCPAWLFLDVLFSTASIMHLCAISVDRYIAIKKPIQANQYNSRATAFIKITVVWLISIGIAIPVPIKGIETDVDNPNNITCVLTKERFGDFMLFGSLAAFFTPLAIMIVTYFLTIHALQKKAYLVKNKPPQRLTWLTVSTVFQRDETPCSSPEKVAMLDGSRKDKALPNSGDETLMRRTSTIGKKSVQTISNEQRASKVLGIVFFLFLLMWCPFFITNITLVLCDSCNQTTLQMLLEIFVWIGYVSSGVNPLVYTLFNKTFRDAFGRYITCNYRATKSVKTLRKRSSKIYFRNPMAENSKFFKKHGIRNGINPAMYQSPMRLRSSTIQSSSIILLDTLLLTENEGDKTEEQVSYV

Compound | pKi [1] | pKi [2] | pKi [3]
Clc1cccc(N2CCNCC2)c1 [mCPP] | 6.65 | 7.09 | 7.20
CC(N)Cc1c[nH]c2ccc(OCc3cccs3)cc12 (centres undefined) [NSC_5311036] | – | – | 8.97
